Measured values published in patent publication EP2914280B1, “SOMATOSTATIN-DOPAMINE CHIMERIC ANALOGS” (IPSEN PHARMA S.A.S., priority 2012, dated 2014).

Sequences of proteins named here, by UniProt entry; tags and fusion partners are left off. A change or cut given only in a name is not applied to a line headed by its entry.
UniProt P30874: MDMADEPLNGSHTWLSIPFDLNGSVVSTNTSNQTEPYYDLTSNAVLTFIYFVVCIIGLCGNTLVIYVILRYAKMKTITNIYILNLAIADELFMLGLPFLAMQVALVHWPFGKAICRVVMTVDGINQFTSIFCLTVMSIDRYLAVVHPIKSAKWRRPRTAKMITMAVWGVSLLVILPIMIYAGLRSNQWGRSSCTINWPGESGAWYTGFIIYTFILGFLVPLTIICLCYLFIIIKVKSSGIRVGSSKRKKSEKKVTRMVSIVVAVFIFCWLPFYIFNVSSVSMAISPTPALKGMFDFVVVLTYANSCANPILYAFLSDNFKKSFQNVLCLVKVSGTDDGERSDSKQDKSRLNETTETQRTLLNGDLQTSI

Molecular target: T1, hSSTR2 (Homo sapiens, UniProt P30874)
T1 construct: host or cells: 'Cells expressing hSSTR2'
Experiment: Intracellular calcium mobilization assay (FLIPR Calcium 4), hSSTR2;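 also: agonist activity measured in cells expressing hSSTR2, seeded in 384-well plates, loaded with Calcium 4 dye, read-out as rise in intracellular calcium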
Type: cell-based
Conditions: Table IV; cells expressing hSSTR2; read-out: hSSTR2 EC50 (nM) ± SEM

Dop1-cyclo(DLys-Arg-Phe-Phe-DTrp-Lys-Thr-Phe) [Compound 44]
EC50: 39.3 ± 16.7 nM
